Only a part is listed here, and it is no random draw. Records with an inconclusive call do not appear. Calls of active or inactive are those of the source. The call rests on the fitted dose curve; in most records, active means well fitted inhibition curve with a large enough effect; inconclusive means small, poorly fitted or top-dose-only effect; inactive means no such curve, though single readings can be large or run the other way; tested in mouse RAW 264.7 cells.
Test: qHTS for Inhibitors of Cell Surface uPA Generation; further: nearly all actives have a fitted effect of over 55% in size
Conditions: cell surface uPA generation assay; at 38.3 µM (top of the series)
Outline: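 Intracellular ATP by ATPlite luminescence serves as read-out: inhibited cell-surface uPA generation prevents LF translocation, preserving ATP. Murine RAW 264.7 macrophages were treated 24 h at 37 C with five-fold serial dilutions, up to 38.3 uM final.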
On the % scale 0 is the no-effect control and ±100 the full control effect.

| Compound | activity change, negative = inhibition |
| --- | --- |
| O=C(NCC1(N2CCCCC2)CCCCC1)c1ccc(Cl)nc1 | inactive: -0.693% |
| CCOC(=O)N1CCC(Nc2ccc(OC)cc2)CC1 | inactive: 1.88% |
| O=C1C(O)=C([N+](=O)[O-])C(=O)C(O)=C1[N+](=O)[O-] | inactive: 4.84% |
| COc1ccc(Cl)cc1C(=O)NCC1(N2CCOCC2)CCCCC1 | inactive: 1.94% |
| O=C(OC1CN2CCC1CC2)C1c2ccccc2Oc2ccccc21 (stereo not given) | inactive: 8.01% |
| N#CC1(Nc2ccccc2)CCN(Cc2ccccc2)CC1 | inactive: -7.88% |
| O=C(NCC1(N2CCCCC2)CCCCC1)c1ccc(Cl)s1 | inactive: 3.92% |
| O=C(NCC1(N2CCCCC2)CCCCC1)c1cccs1 | inactive: -1.46% |
| O=C(NCC1(N2CCCCC2)CCCCC1)c1ccc(=O)[nH]c1 | inactive: 3.11% |
| CC(C)(C)OC(=O)N1CCC(N(C(=O)c2ccccc2)c2ccc(F)cc2)CC1 | inactive: -7.1% |
| COc1ccc(C(=O)NCC2(N3CCCCC3)CCCCC2)c(OC)c1OC | inactive: -7.3% |
| COc1ccc(C(=O)NCC2(N3CCCCC3)CCCCC2)cc1 | inactive: 5.85% |
| Cc1cccc(NC2(C#N)CCN(Cc3ccccc3)CC2)c1 | inactive: 1.68% |
| CSc1ccccc1C(=O)NCC1(N2CCCCC2)CCCCC1 | inactive: 0.86% |
| COc1cc(C(=O)NCC2(N(C)C)CCCCC2)ccc1OC(F)F | inactive: 2.37% |
| CCOC(=O)N1CCC(Nc2cccc(C)c2)CC1 | inactive: 14.4% |
| CCOc1ccc(C)cc1CN(CCCl)CCCl | inactive: -8.13% |
| O=C1CCN(Cc2ccccc2)CC1 | inactive: 0.105% |
| CCOC(=O)N1CCC(Nc2ccc(F)cc2)CC1 | inactive: 7.16% |
| O=C(NCC1(N2CCCCC2)CCCCC1)c1ccc(F)cc1 | inactive: 2.82% |
| CCCCOc1ccc(C(=O)NCC2(N3CCOCC3)CCCCC2)cc1 | inactive: 1.41% |
| O=P1(N(CCCl)CCCl)SCCCS1 | inactive: -2.16% |
| CCN1CCC(Nc2cccc(F)c2)CC1 | inactive: 2.35% |
| Cc1ccccc1NC1(C#N)CCN(Cc2ccccc2)CC1 | inactive: 2.15% |
| Cn1c(=O)[nH]cc(N(CCCl)CCCl)c1=O | inactive: 1.74% |
| CN(C)c1ccc(C(=O)NCC2(N3CCCCC3)CCCCC2)cc1 | inactive: -3.92% |
| O=C(NCC1(N2CCCCC2)CCCCC1)c1ccco1 | inactive: 3.46% |
| COc1cc(OC)cc(C(=O)NCC2(N3CCCCC3)CCCCC2)c1 | inactive: -2.99% |
| CC(=O)N(c1ccccc1)C1CCNCC1 | inactive: -0.247% |
| Cc1ccc(NC2(C#N)CCN(Cc3ccccc3)CC2)cc1 | inactive: 1.6% |
